Assay results reported in patent US8575186B2, “Epiminocycloalkyl[b] indole derivatives as serotonin sub-type 6 (5-HT6) modulators and uses thereof” (Albany Molecular Research, Inc., priority 2009, dated 2013).
pKi: −log10 of the molar value.

The chains behind the UniProt entries cited, without tags or fusion partners.
UniProt P50406, whole entry: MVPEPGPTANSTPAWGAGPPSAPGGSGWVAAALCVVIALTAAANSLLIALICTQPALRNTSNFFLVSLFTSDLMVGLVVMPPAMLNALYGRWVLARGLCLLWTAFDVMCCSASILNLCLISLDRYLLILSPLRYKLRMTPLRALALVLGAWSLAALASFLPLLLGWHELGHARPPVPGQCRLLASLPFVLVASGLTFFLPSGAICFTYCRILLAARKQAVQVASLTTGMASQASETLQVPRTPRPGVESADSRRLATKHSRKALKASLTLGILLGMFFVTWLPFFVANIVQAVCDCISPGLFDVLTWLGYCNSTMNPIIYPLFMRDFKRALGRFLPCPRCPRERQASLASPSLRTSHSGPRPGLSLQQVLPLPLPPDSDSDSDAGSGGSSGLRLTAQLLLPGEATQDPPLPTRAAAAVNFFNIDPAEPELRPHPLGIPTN

target: human 5-HT6 receptor (Homo sapiens (Human), UniProt P50406); assay: radioligand binding assay (SPA format), [N-methyl-3H]-LSD; conditions: read-out: human 5HT6 Ki

First: Cn1c2c(c3cc(S(=O)(=O)n4ccc5cccnc54)ccc31)C1CCC(C2)N1 (stereo not drawn) [Example 106]
Second: Cn1c2c(c3cc(S(=O)(=O)c4cncc5ccccc45)ccc31)C1CCC(C2)N1 (stereo not drawn) [Example 180]
The pKi of the first is 0.31 log units lower: 8.41 for the first, 8.72 for the second. The second binds more tightly here.

`Cn1c2c(c3cc(S(=O)(=O)n4ccc5cccnc54)ccc31)C1CCC(C2)N1` (stereo not drawn) [Example 198] showed a pKi of 8.33.
